From a compilation of properties of binary mixtures

Assay: xn = mol fraction of the nth substance listed
Details: 100 kPa

CCC[N+](CCC)(CCC)CCC.[Br-] + OCCO
viscosity [mPa·s]
Details	298 K	308 K	328 K	338 K	348 K
x1 = 0.25	72.5	–	–	–	–
x2 = 0.75	72.5	42	17	12.5	9
